Measurements taken from patent US8748608B2, “4-phenylpiperazine derivatives with functionalized linkers as dopamine D3 receptor selective ligands and methods of use” (The United States of America as Represented by the …, priority 2007, dated 2014).
Where two headings read alike, the source gives them in different places.

The chains behind the UniProt entries cited, without tags or fusion partners.
UniProt P35462, whole entry: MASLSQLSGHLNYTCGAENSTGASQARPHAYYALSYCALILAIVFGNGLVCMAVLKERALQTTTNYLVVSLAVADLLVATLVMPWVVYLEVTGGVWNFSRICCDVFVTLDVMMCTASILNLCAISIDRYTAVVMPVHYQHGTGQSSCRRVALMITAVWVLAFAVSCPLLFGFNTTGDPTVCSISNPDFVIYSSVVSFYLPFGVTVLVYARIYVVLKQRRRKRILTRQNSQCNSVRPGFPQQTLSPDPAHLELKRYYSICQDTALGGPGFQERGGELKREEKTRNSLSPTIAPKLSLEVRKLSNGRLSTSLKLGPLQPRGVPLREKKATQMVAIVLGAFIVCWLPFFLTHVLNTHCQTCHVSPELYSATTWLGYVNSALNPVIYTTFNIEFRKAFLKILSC

Target: human dopamine D3 receptor (Homo sapiens (Human), UniProt P35462)
Assay: Human D2-like receptor competition binding in HEK cells, D3

Structure (SMILES): COc1ccccc1N1CCN(C/C=C/CNC(=O)c2ccc3c(c2)Cc2ccccc2-3)CC1 [Compound 15, N-(4-(4-(2-methoxyphenyl)piperazin-1-yl)-trans-but-2-enyl)-9H-fluorene-2-carboxamide]
- Ki (HEK cells, hD3, read-out: D3 Ki): 12 nM
- Ki (Table 3, unit inferred, with spread, read-out: D3 binding affinity): 1.2 ± 0.1 nM
